From PubChem
Rows were chosen to be rich in hits. Some 0.53% of all compounds tested hit in one or more screens of this group.
Mm-Cpn inhibitor – M. maripaludis TRiC chaperonin inhibition | purified Mm-Cpn ATPase, ADP Transcreener TR-FRET | Potency, µM (highest dose often 76.9 µM), without a hit: at the highest dose activity, negative = inhibition, most hits filed as inhibitors | 330,000 tested, 0.031% active; active = well fitted inhibition curve with a large enough effect; inconclusive = small, poorly fitted or top-dose-only effect; also: potency is read from the fitted curve at half-maximal effect; % is scaled to controls: 0 for no effect and ±100 for the full control effect; nearly all actives have a fitted effect of over 80% in size
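25 nM Mm-CPN + cpd, 10 min 37°C; + 10 uM ATP, 30 min 37°C; buffer 30 mM Tris pH 7.4, 100 mM KCl, 5 mM MgCl2, 1 mM DTT; Transcreener ADP HTRF detection 30 min RT.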
CCT modulator – cytosolic chaperonin activity modulation | purified chaperonin ATPase assay, HTRF ADP detection, 30 min | AID 651819 | 360,000 tested, 0.3% active | activity change, % (test concentration not listed), hits read low; in the data active = activity change below about -30%; also: % is scaled to controls: 0 for no effect and ±100 for the full control effect
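TRiC at 40 or 20 nM final (batch-dependent) in 30 mM Tris pH 7.4, 100 mM KCl, 5 mM MgCl2, 1 mM DTT, with compound at single 76 uM and 10 uM ATP, 30 min at 37 deg C. ADP detected by HTRF Transcreener, 665/615 ratio.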
Giardia kill – Giardia lamblia killing; Giardia lamblia trophozoite viability; 340,000 tested, 0.15% active; activity change, % at 7.66 µM, hits read low; AID 540267; in the data active = activity change below about -80%; inconclusive = between about -30% and that limit;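 also: parasites exposed to compound for two days anaerobically before the ATP read; % is scaled to controls: 0 for no effect and ±100 for the full control effect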
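Each well holds 100 Giardia trophozoites and compound. After two days (48 hrs) at 37 deg C in anaerobic conditions, ATP is quantified by luminescence.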
Rango-impB inh – Rango-importin beta binding inhibition; AID 540263; 340,000 tested, 0.031% active; Rango CFP/YFP FRET sensor + importin beta, 45 min; Potency, µM (titrated, usually from 92.2 µM), without a hit: at the top dose inhibition of complex formation; Q14974;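 also: potency is read from the fitted curve at half-maximal effect; 0% = DMSO wells and 100% = buffer wells lacking importin beta; nearly all actives have a fitted effect of over 15% in size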
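FRET biosensor (snurportin 1 IBB flanked by EYFP and cerulean), 50 nM, with compound 5 min, then 0.125 microM importin beta in PBS, 1 mM DTT, 0.02% Tween-20, 0.1% BSA. CFP/YFP ratio read after 45 min at room temperature; pre-read flags interference.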
Rango dissoc inh – inhibition of RanGTP-driven Rango-importin beta dissociation. O95149+P62826. Biochemical FRET Rango-importin beta, RanGTP-induced dissociation. Potency, µM (series often up to 46.1 µM), for the others: at the highest dose activity change, negative = inhibition. 340,000 tested, 0.071% active. AID 540253; also: potency is read from the fitted curve at half-maximal effect; % of control where 0% means no effect; nearly all actives have a fitted effect of over 45% in size
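FRET read at 45 min, room temperature: inhibitors block the CFP/YFP signal rise when RanGTP (0.6 uM Ran, 2 mM GTP, 0.2 uM RCC1) frees Rango (0.1 uM) from importin beta (0.25 uM). Pre-read after 5 min compound exposure flags interference.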
Starred values were filed as active, the others as inactive; ? = inconclusive; / = no result. Unless noted, calls follow the shape of the full dose curve.

SMILES | Mm-Cpn inhibitor | CCT modulator | Giardia kill | Rango-impB inh | Rango dissoc inh
O=C1S/C(=C\c2ccc(O)c([N+](=O)[O-])c2)C(=O)N1Cc1cccc([N+](=O)[O-])c1 | -2% | -2 | -82* | 3% | 22%
Cc1ccc(NC(=O)CN2C(=O)S/C(=C/c3ccc(O)c([N+](=O)[O-])c3)C2=O)cc1C | 0% | 0 | -82* | ? | -8%
CC(=O)c1nnn(-c2nc(C#N)nc(N3CCOCC3)n2)c1C | / | / | -10 | / | /
O=C(COc1cccnc1[N+](=O)[O-])Nc1ccc2c(c1)OC(F)(F)O2 | 1% | -1 | -84* | 6% | 11%
N#CC1(NC(=O)COc2cccnc2[N+](=O)[O-])CCCCC1 | 2% | -38* | 1 | -3% | -17%
Cc1ccc(C(=O)NCC(=O)OCC(=O)c2ccc3ccccc3c2)cc1 | / | / | -21 | / | /
CC(=O)OCC(NC(=O)C1CCCN1C(=O)OC(C)(C)C)C1OC(n2cc(F)c(=O)[nH]c2=O)C(OC(C)=O)C1OC(C)=O (configuration not stated) | / | / | 21 | / | /
O=C1CCCN1CCCN=c1c([N+](=O)[O-])nn(-c2ccc(Cl)cc2)n1O | 0% | -4 | ? | 0% | -7%
COc1ccc(CCN=c2c([N+](=O)[O-])nn(-c3cccc(C)c3)n2O)cc1OC | 0% | -2 | ? | 5% | -1%
COc1ccc(-n2nc([N+](=O)[O-])c(=NCCCN3CCCC3=O)n2O)cc1 | -4% | -1 | -85* | 2% | -5%
O=[N+]([O-])c1nn(-c2ccc(Cl)cc2)n(O)c1=NCc1ccccc1 | 0% | 2 | ? | 2% | -8%
Cc1cccc(CCN=c2c([N+](=O)[O-])nn(-c3ccccc3)n2O)c1 | 1% | -3 | -91* | -3% | 1%
COc1ccc(-n2nc([N+](=O)[O-])c(=NCCc3cccc(C)c3)n2O)cc1 | -4% | -6 | -85* | 0% | -9%
Cc1cccc(-n2nc([N+](=O)[O-])c(=NC3CCN(Cc4ccccc4)CC3)n2O)c1 | 1% | 0 | -84* | -2% | 0%
S=C(CN1CCCC1=S)N1CCOCC1 | / | -2 | 12 | -1% | 0%
CC(C)(CCC(=S)N1CCOCC1)C1CCCCC1 | -2% | -40* | -1 | 0% | -20%
NC(=O)C1CCN(c2nc(-c3ccccc3Cl)cs2)CC1 | 2% | / | / | / | /
Cc1ccc2ncnc(NCc3ccco3)c2c1 | / | / | 0 | / | /
COc1ccc2nc(C)cc(N/N=C/c3cccc(OC)c3O)c2c1 | -1% | -3 | -83* | ? | ?
COc1ccc(/C=N/Nc2cc(C)nc3ccc(Br)cc23)cc1 | -1% | 1 | 15 | ? | ?

Four entries from above, sorted by their value in CCT modulator, lowest first.
| SMILES | CCT modulator |
| --- | --- |
| N#CC1(NC(=O)COc2cccnc2[N+](=O)[O-])CCCCC1 | -38* |
| COc1ccc2nc(C)cc(N/N=C/c3cccc(OC)c3O)c2c1 | -3 |
| COc1ccc(-n2nc([N+](=O)[O-])c(=NCCCN3CCCC3=O)n2O)cc1 | -1 |
| O=[N+]([O-])c1nn(-c2ccc(Cl)cc2)n(O)c1=NCc1ccccc1 | 2 |

Following part.
SMILES | Mm-Cpn inhibitor | CCT modulator | Giardia kill | Rango-impB inh | Rango dissoc inh
COC(=O)C1=C[C@@H](C(=O)OC)C2C3=C(C(=O)[C@]2(C)NC(=O)c2ccccc2)[C@H](C)n2c(=O)n(C)c(=O)n2[C@@H]3C1 (some centres not stated) | / | / | -5 | / | /
O=C(CNC(=O)c1ccccc1)OCC(=O)c1ccc2ccccc2c1 | / | / | 7 | / | /
Cn1c(SCc2ccc(C#N)cc2Cl)nc2ccccc21 | -3% | -36* | 17 | -4% | 14%
O=C1/C(=N\S(=O)(=O)c2cccs2)C([n+]2cccc(Cc3ccccc3)c2)=C([O-])c2ccccc21 | 1% | 0 | 25 | 58µM* | 19%
O=C1C(=O)N(CC2CCCO2)C(c2ccccc2[N+](=O)[O-])/C1=C(/O)c1ccccc1 (configuration not stated) | 0% | -49* | -12 | 0% | -20%
C[C@@H]1CCCCO[C@@H](CN(C)Cc2ccncc2)[C@@H](C)CN([C@H](C)CO)C(=O)c2cc(NC(=O)c3ccccc3)ccc2O1 | / | -34* | / | / | /
C[C@H](CO)N1C[C@H](C)[C@@H](CN(C)C(=O)Nc2ccc(C(F)(F)F)cc2)Oc2c(NC(=O)Nc3ccccc3)cccc2C1=O | 1% | 0 | 11 | 0% | -2%
C[C@H](CO)N1C[C@H](C)[C@@H](CN(C)C(=O)Nc2ccccc2)Oc2ccc(NC(=O)Nc3ccccc3)cc2C1=O | 0% | -44* | ? | -1% | 12%
Cc1cc(C(=O)Nc2cccc3c2O[C@@H](CN(C)S(=O)(=O)c2ccccc2)[C@H](C)CN([C@@H](C)CO)C3=O)n(C)n1 | -1% | -3 | 16 | -4% | -8%

Two compounds picked at random from the list so far:
SMILES | Mm-Cpn inhibitor | CCT modulator | Giardia kill | Rango-impB inh | Rango dissoc inh
COc1ccc2nc(C)cc(N/N=C/c3cccc(OC)c3O)c2c1 | -1% | -3 | -83* | ? | ?
Cn1c(SCc2ccc(C#N)cc2Cl)nc2ccccc21 | -3% | -36* | 17 | -4% | 14%
